Assay: cytostatic efficacy (ED50) compared with cyclophosphamide
Conditions: compared with Cyclophosphamid; no model, species or route given

For `O=P1(N(CCCl)CCCl)NCC(O)CO1` (stereo not shown), the ED50 was “der des Cyclophosphamids entspricht”.

— EP0072531A1, “Derivatives of cyclophosphamide, process for their preparation and their use” (dated 1983)
